# Binding of CDR-mutated scFvs to a peptide of the spike HR2 region

All variants were tested on one target, the spike HR2 peptide PDVDLGDISGINAS (SARS-CoV-2).

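Phage display of a naive human antibody library on the peptide gave the parent. Variants in AAYL51 differ from the parent at up to three CDR positions; double and triple changes were sampled at random. AlphaSeq pools MATa yeast showing the antibodies with MATalpha yeast showing the peptide. Binding brings cells together so that they mate, and sequencing counts the barcode pairs among the diploids. Read counts were normalised to the haploid input and turned into Kd by a linear fit to BCL2-family pairs of known affinity, for each replicate. Each pool was mated in three replicate cultures.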

The variants keep the light chain, the linker and the frameworks of Ab-91 (scFv order VL, three GGGGS repeats, VH).
VL: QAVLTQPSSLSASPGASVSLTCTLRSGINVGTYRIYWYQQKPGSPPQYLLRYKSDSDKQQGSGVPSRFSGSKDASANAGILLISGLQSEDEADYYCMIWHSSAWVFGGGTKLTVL
VH: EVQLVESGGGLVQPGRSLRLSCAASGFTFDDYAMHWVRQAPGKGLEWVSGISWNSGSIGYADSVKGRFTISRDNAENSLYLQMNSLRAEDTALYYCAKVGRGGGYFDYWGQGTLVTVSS

Changes read parent residue, position, new residue, counted from the first residue of the VH shown. Numbers give log10(Kd / nM), so 0 is 1 nM and 3 is 1 µM. Smaller is tighter. The mean shown is taken over the replicates in which the pair was detected. "nd" means that the variant was in the library but no mating with the target was seen in that replicate; the authors take this as a sign of poor binding, and no number exists. As a blank, each scFv also met three strains without target: over library AAYL51, 21% of these pairings were detected, typically at 4.54 and seldom below 3.26. For each scFv, signals with the empty controls are counted beside the result, with their mean in brackets.

changes | replicates, log10 nM | mean log10 Kd (nM) | control signals
A33R/W53N/D62C | 5.55 5.18 nd | 5.37 | 8/9 (4.73)
G26H/R101V/G102E | nd nd nd | nd | 1/9 (3.64)
G56K/G100Y/G102L | nd nd 5.20 | 5.20 | 0/9
D30P/G50N/W53D | nd nd nd | nd | 0/9
M34A/H35T/G104L | nd nd nd | nd | 2/9 (5.04)
G26H/F27K | 4.26 nd nd | 4.26 | 0/9
F27E/A33E/I58T | 5.07 6.43 5.33 | 5.61 | 3/9 (5.29)
I58P/Y60W/K65L | nd nd nd | nd | 3/9 (4.60)
G26M/A33D | 4.31 7.10 5.64 | 5.68 | 6/9 (4.90)
V64Y/G100W/Y108W | nd nd nd | nd | 2/9 (4.63)
A33K | 5.92 nd nd | 5.92 | 1/9 (3.85)
I51K/G100Y/G104P | nd nd nd | nd | 0/9
A61Y/D62L | nd nd nd | nd | 1/9 (4.04)
S55M/Y60H/F106I | nd nd nd | nd | 4/9 (4.69)
F29W/D30I/S57G | nd 2.63 nd | 2.63 | 1/9 (3.49)
F29N/G100K/Y108W | nd nd nd | nd | 0/9
D30K/G50A/G103P | nd nd 3.55 | 3.55 | 2/9 (3.84)
D31W/S57K/A61L | nd nd nd | nd | 1/9 (5.02)
D31C/I51L/V64G | nd nd nd | nd | 0/9
G26Y/N54V/S63T | nd nd nd | nd | 1/9 (4.08)
H35Y/N54T/D107L | nd nd nd | nd | 0/9
A61L/G102M/D107F | 2.75 2.74 2.66 | 2.71 | 5/9 (5.21)
G26M/Y60M/A61C | nd nd nd | nd | 0/9
R101E/F106L | 5.29 nd nd | 5.29 | 2/9 (3.32)
Y32P/Y105P/F106M | nd nd nd | nd | 0/9
G59D/G102M/G103P | nd nd nd | nd | 4/9 (4.03)
A33I/I58S/G103C | 4.30 3.71 5.89 | 4.64 | 7/9 (5.16)
R101E/G104W/D107Q | nd nd nd | nd | 0/9
Y32A/G50R/G102T | nd nd nd | nd | 2/9 (4.12)
S55T/G56W/G104I | nd nd nd | nd | 2/9 (4.18)
T28L/I51S/Y60P | 4.74 4.40 nd | 4.57 | 2/9 (4.55)
N54R/G100D/F106W | nd 5.03 nd | 5.03 | 1/9 (5.24)
D30Y/W53N/G103N | 4.47 5.27 nd | 4.87 | 3/9 (3.66)
T28R/S52D/A61D | nd nd nd | nd | 1/9 (3.38)
G56H/K65Y/V99F | 6.63 nd 5.24 | 5.94 | 4/9 (4.98)
M34H/V99M/Y108H | 5.55 nd nd | 5.55 | 1/9 (2.87)
V64L/V99F/F106H | 1.71 1.50 0.14 | 1.12 | 0/9
G50C/Y60I/F106A | nd nd nd | nd | 0/9
M34W/A61D/V99D | nd nd nd | nd | 0/9
I58Y/G102Y/Y105N | nd nd nd | nd | 0/9
M34Y/A61I/V99C | nd nd nd | nd | 0/9
I51N/G100P/F106G | nd nd nd | nd | 5/9 (4.62)
D30L/N54L/A61N | nd nd nd | nd | 3/9 (4.40)
M34W/G50H/F106G | nd nd nd | nd | 0/9
G26A/G104C/Y108Q | nd nd nd | nd | 1/9 (3.93)
W53H/N54P/A61T | nd nd 4.40 | 4.40 | 2/9 (4.94)
F29C/H35A/G102F | 4.18 5.25 nd | 4.71 | 2/9 (4.42)
T28G/A33V/G50Q | nd nd 3.51 | 3.51 | 0/9

Values reported by Engelhart et al. 2022, doi:10.1038/s41597-022-01779-4 (FLAb copy).